Each substance was assayed on S. mutans (assay: Anti-biofilm activity level (% viability remaining for S. mutans)).
Type: cell-based

Substance	% viability remaining [%]
TFFRLFFRSNTQALGK*** [N7-F10/N21432]	76
TFFRLFNRSFTQALGS [K16-S16 C16G2]	59
TFFRLNFRSFTQALGK [N7-F6/N21424]	65
